Laboratory results as given in patent publication US20240300900A1, “HYDROPHILIC AZADIBENZOCYCLOOCTYNE DERIVATIVES AND METAL-FREE CLICK REACTIONS WITH THESE HYDROPHILIC AZADIBENZOCYCLOOCTYNE DERIVATIVES” (Roche Diagnostics Operations, Inc., priority 2021, published 2024).

What was measured:
[1] = Hydrophobicity indicated by reverse phase HPLC (YMC-Triart C18); type: physicochemical; details: YMC-Triart C18, 0-100% MeCN in H2O, 0.1% TFA in 25 min; later retention = more hydrophobic
From the text: The other way round, an earlier retention corresponded to higher hydrophilie.

[2] = Solubility experiments: successive mixing with water, visual inspection; type: physicochemical; details: sonicated 10 s
From the text: If solid compound was still visible, this was considered as not dissolved. If no solid compound was visible, this was considered as dissolved.

Row | SMILES | Retention Time [1] [min] | dissolved in water (visual inspection) ([2]; theoretical concentration 0.6 mM) | dissolved in water (visual inspection) ([2]; theoretical concentration 6.0 mM) | dissolved in water (visual inspection) ([2]; theoretical concentration 12.4 mM) | dissolved in water (visual inspection) ([2]; theoretical concentration 16.5 mM) | dissolved in water (visual inspection) ([2]; theoretical concentration 515 mM)
1 | O=C(O)CCCNC(=O)CCCC(=O)N1Cc2cc(OCCS(=O)(=O)O)ccc2C#Cc2ccc(OCCS(=O)(=O)O)cc21 [Compound 10] | 9.45 |  |  |  |  | 
2 | O=C(CCCC(=O)N1Cc2cc(OCCS(=O)(=O)O)ccc2C#Cc2ccc(OCCS(=O)(=O)O)cc21)NCCCC(=O)ON1C(=O)CCC1=O [Compound 11] |  | yes | yes | yes | yes | yes
